This experiment has as its target Kappa-type opioid receptor (Cavia porcellus, UniProt P41144). Briefly: Displacement of [3H]-U69593 from Dunkin-Hartley guinea pig brain membrane kappa opioid receptor incubated for 30 mins by liquid scintillation counting analysis. For orientation: In a radioligand displacement assay an active substance lowers the binding of a labelled ligand.

The chains behind the UniProt entries cited, without tags or fusion partners. Where a name states a change or a piece, a line headed by the entry shows the natural chain unless it says otherwise.
UniProt P41144: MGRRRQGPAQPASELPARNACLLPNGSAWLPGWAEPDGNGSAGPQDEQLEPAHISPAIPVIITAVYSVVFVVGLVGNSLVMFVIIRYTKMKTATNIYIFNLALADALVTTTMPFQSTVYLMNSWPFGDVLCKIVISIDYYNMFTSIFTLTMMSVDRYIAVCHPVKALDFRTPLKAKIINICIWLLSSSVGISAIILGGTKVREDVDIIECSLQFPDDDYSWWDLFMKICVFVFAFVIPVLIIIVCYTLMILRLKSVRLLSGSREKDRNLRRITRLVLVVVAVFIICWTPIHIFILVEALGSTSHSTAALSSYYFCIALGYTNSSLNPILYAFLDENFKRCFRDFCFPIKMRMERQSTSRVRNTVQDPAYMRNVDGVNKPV

This note sets out measurements from BindingDB's records for 35016113, “Dual Sigma-1 receptor antagonists and hydrogen sulfide-releasing compounds for pain treatment: Design, synthesis, and pharmacological evaluation” (2022).

pKi: −log10 of the molar value.

By pKi is commonly meant the Ki on a negative log10 scale, so that one unit is a factor of ten. Low values mean a large Ki, high ones a small Ki. For `CN(C(=O)Cc1ccc(Cl)c(Cl)c1)[C@@H]1CCCC[C@H]1N1CCCC1`, the pKi is 8.96.
